Patent US20050260730A1, “CDK2/cyclin A crystals and uses thereof” (published 2005)

Biological target: CDK2/cyclin A complex (human, UniProt P24941 1-298; P20248 173-432)
Test: cell-based or functional assay

## RRLF (C-terminal amide) [H-Arg-Arg-Leu-Phe-NH2]
  CDK2/cyclin A kinase activity IC50: > 50 µM
